System: Chinese hamster V79 cells
Experiment: Colony formation assay, radio- and chemosensitization
Type: cell-based
Details: V79, 10 and 20 µM SQAP
Description: For hypoxia irradiation, cell cultures were placed in Aneropak Kenki system (Mitsubishi Gas Chemical, Tokyo, Japan) with oxygen meter to confirm pO2 below 0.1%. Cells were kept in hypoxia for 3 h before irradiation.

bleomycin
effect of SQAP on cytotoxicity of the agent: increased the cytotoxicity
